Assay results as given in patent EP2705856A1, “Compounds for the treatment of neurodegenerative disorders” (Deutsches Zentrum für Neurodegenerative Erkrankungen e.V., priority 2012, dated 2014).

Chains of the proteins cited; added tags and fusions are not shown. Residues count along the entry.
UniProt P63098, 2-170 limits assumed: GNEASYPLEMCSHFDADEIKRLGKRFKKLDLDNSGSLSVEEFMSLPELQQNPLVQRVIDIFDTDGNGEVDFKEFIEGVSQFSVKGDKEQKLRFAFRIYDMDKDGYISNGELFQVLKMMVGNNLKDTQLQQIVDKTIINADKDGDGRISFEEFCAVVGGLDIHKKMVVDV

Target: Calcineurin (Homo sapiens, UniProt P63098+Q08209)
Test: Calcineurin activity measurement (malachite green based assay)
Details: compound complexed with hCypA only (15 µM)

Structure (SMILES)	/C50-values, CaN inhibition
C/C=C/C[C@@H](C)[C@@H](O)[C@H]1C(=O)N[C@@H](CC)C(=O)N(C)CC(=O)N(C)[C@@H](CC(C)C)C(=O)N[C@@H](C(C)C)C(=O)N(C)[C@@H](CC(C)C)C(=O)N[C@@H](C)C(=O)N[C@H](COCC(=O)NCCCCCNC(=O)C=CC[C@@H]2/C=C(\C)C[C@H](C)C[C@H](OC)[C@H]3O[C@@](O)(C(=O)C(=O)N4CCCC[C@H]4C(=O)O[C@H](/C(C)=C/[C@@H]4CC[C@@H](O)[C@H](OC)C4)[C@H](C)[C@@H](O)CC2=O)[C@H](C)C[C@@H]3OC)C(=O)N(C)[C@@H](CC(C)C)C(=O)N(C)[C@@H](CC(C)C)C(=O)N(C)[C@@H](C(C)C)C(=O)N1C	lower micromolar range
C/C=C/C[C@@H](C)[C@@H](O)[C@H]1C(=O)N[C@@H](CC)C(=O)N(C)CC(=O)N(C)[C@@H](CC(C)C)C(=O)N[C@@H](C(C)C)C(=O)N(C)[C@@H](CC(C)C)C(=O)N[C@@H](C)C(=O)N[C@H](COCC(=O)NCCCCCCCCCNC(=O)C=CC[C@@H]2/C=C(\C)C[C@H](C)C[C@H](OC)[C@H]3O[C@@](O)(C(=O)C(=O)N4CCCC[C@H]4C(=O)O[C@H](/C(C)=C/[C@@H]4CC[C@@H](O)[C@H](OC)C4)[C@H](C)[C@@H](O)CC2=O)[C@H](C)C[C@@H]3OC)C(=O)N(C)[C@@H](CC(C)C)C(=O)N(C)[C@@H](CC(C)C)C(=O)N(C)[C@@H](C(C)C)C(=O)N1C	nanomolar concentrations
